The results in this text go back to patent US20050266014A1, “Tumor antigen based on products of the tumor suppressor gene WT1” (HARUO SUGIYAMA, priority 1998, published 2005).

Structures are written as SMILES.

Assay [1] deals with EL-4 cells (expressing K^b and D^b). As to the kind of experiment: Killing assay, Example 1: spleen cells of peptide-immunized mice against Europium labeled EL-4 cells. Type of assay: cell-based, C57BL/6 mice. The note with it: for cytocidal effect (killing assay): E/T ratio 40:1. On the procedure:
One week after the immunization treatment, the mouse spleen was extracted, from which suspensions of spleen cells were prepared.
The above immunized spleen cells and the irradiated spleen cells were co-cultured for 5 days to induce or prepare killer T cells.

Assay [2] relates to C1498 cells transfected with the WT1 gene. As to the kind of experiment: Specific lysis by D^b 126 peptide-specific CTL, Example 6. In kind it is cell-based, mouse. The conditions noted are these: WT1-transfected C1498 vs parent C1498 cells, FIG. 14.
For assay [3], the system named is mouse cells immunized with the D^b 126 peptide. As to the kind of experiment: Flow cytometry of the CD4+/CD8+ ratio, Example 2. The conditions noted are these: compared to non-immunized mouse (control) cells. Type of assay: cell-based, C57BL/6 mice.
Assay [4] has as its system FBL3 cells that inherently express WT1. As to the kind of experiment: Specific lysis by D^b 126 peptide-specific CTL, Example 6. In kind it is cell-based, mouse. The note with it: FIG. 13.
Assay [5] deals with FBL3 leukemia cells. As to the kind of experiment: In vivo tumor immunity: immunization and challenge with FBL3 leukemia cells, Example 8. Also noted: species or system mice.
The subject of assay [6] is RMA cells that do not express WT1. As to the kind of experiment: Specific lysis by D^b 126 peptide-specific CTL, Example 6. The conditions noted are these: FIG. 13. Type of assay: cell-based, mouse.
The subject of assay [7] is spleen cells. As to the kind of experiment: Flow cytometry of CD4 and CD8 expression on immunized spleen cells, Example 1. Type of assay: cell-based, C57BL/6 mice. The note with it: compared to non-immunized control spleen cells, FIG. 1.
Assay [8] has as its system induced CTL. The assay is described as follows: FACS analysis of surface markers of induced CTL, Example 3. Type of assay: cell-based. The conditions noted are these: human CTL, FIGS. 5 to 10. On the procedure:
One week later, T2 cells that were irradiated after incubating for 1 hour with the peptide (20 μg/ml) were added to the above culture system for restimulation. From the following day, human IL-2 (final concentration 100 JRU/ml) was added to the culture.
Subsequently, after repeating, for five times, stimulation with the T2 cells that were irradiated after being pulsed with the peptide, a killing assay was performed using, as the target, the T2 cells pulsed with the peptide or the T2 cells not pulsed with the peptide. The surface markers of the induced CTL were subjected to FACS analysis.

Assay [9] relates to RMA-S cells. As to the kind of experiment: Killing assay, Example 2: lymph node cells of mice given peptide-pulsed dendritic cells against 51Cr-labeled RMA-S cells. Type of assay: cell-based, C57BL/6 mice. The conditions noted are these: FIGS. 2 and 3. The procedure: Dendritic cells (DC) derived from the bone marrow of the C57BL/6 mice were prepared in the following manner. According to the standard method, the bone marrow cells were cultured in the presence of GM-CSF to prepare bone marrow-derived dendritic cells (J. Exp. Med. 182: 255, 1995).
Then, the above DC cells were intradermally injected to the foot pads and hands of C57BL/6 mice, and on day 5 the lymph nodes were removed to prepare cell suspensions.
Then the above cell suspension derived from the relevant lymph node and the B7.1-RMA-S cells were mixed and cultured for in vitro restimulation.
Then, on day 5 after the in vitro restimulation, a killing assay was performed using the ^51Cr-labeled RMA-S cells as the target. When ⅛ of the total lymphocytes recovered on day 5 after restimulation was used as the effector cell, the E/T ratio was set as the highest one (1.0).

For `CSCC[C@H](NC(=O)[C@@H](N)CCCNC(=N)N)C(=O)N[C@@H](Cc1ccccc1)C(=O)N1CCC[C@H]1C(=O)N[C@@H](CC(N)=O)C(=O)N[C@@H](C)C(=O)N1CCC[C@H]1C(=O)N[C@@H](Cc1ccc(O)cc1)C(=O)N[C@@H](CC(C)C)C(=O)O` [D^b 126], the “cytocidal effects, in words” value is recorded as “few cytocidal effects were observed” in assay [1] (EL-4 cells not pulsed with D^b 126 as target) and “cytocidal effects were observed” in [1] (EL-4 cells pulsed with D^b 126 as target). The “cytocidal effect (killing assay)” value in [1] (Peptide+ target, Mouse A) is 76.6%; in [1] (Peptide+ target, Mouse B) it was 37.2%; in assay [1] (Peptide− target, Mouse A), 4.9%; in [1] (Peptide− target, Mouse B) it was 0.9%. In addition, the figures for the “specific lysis by D^b 126 peptide-specific CTL” value in assay [2], in assay [4] and in assay [6] were “further killed the C1498 cells transfected with the mouse WT1 gene as compared to the parent C1498 cells”, “caused lysis of the FBL3 cells” and “but not the RMA cells”, respectively. Moreover, in [3], the “CD8+ cells, in words” value is on record as “the CD8^+ cells were increased”. Also, the “survival after tumor challenge” value in [5] (LPS-activated spleen cells pulsed with D^b 126 peptide, once every week for 3 weeks, 3×10^7 FBL3 cells intraperitoneally, FIG. 16) was “overcame tumor challenge and survived”. For the same molecule, the “ascites after tumor challenge” value in [5] (immunized mice, from three days after intraperitoneal injection of tumor cells) is on record as “ascites started to gradually decrease”. In assay [7], the “CD8+ cells in immunized spleen cells” value is on record as “increase in the CD8^+ cells”. Further, the “surface markers of induced CTL (CD4, CD8)” value in assay [8] is reported as “most of the cells were CD8-positive”. The “killing of target cells” value in assay [9] (RMA-S target cells not pulsed with the peptide) is reported as “did not kill the target cells that were not pulsed with said peptide”; in assay [9] (RMA-S target cells pulsed with the peptide), “killed the target cells pulsed with said peptide”.
